This test addresses Recombinant human KRAS protein containing the G12C amino acid substitution (Homo sapiens (Human), UniProt P01116, G12C). Kind of test: HTRF nucleotide exchange assay, KRAS G12C. The following applies: read-out: KRAS G12C HTRF NEA IC50; 180 minute incubation with compound at room temperature; at least two independent replicates. Background: In TR-FRET formats the signal depends on donor and acceptor labels being close together.

Chains of the proteins cited; added tags and fusions are not shown. A line that says so, or that is headed by a name, gives the form on record, which may keep a tag or linker. Residues count along the entry.
UniProt P01116, 1-164 with tags or gaps G12C limits assumed: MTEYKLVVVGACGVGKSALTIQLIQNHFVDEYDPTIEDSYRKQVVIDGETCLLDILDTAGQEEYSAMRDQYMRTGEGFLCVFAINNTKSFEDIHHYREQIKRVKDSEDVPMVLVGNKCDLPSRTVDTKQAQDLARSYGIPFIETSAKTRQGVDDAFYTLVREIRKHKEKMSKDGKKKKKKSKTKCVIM

A word on the IC50: it is the concentration at which inhibition is half-maximal.

Regarding `C=CC(=O)N1CC2(CC(c3nc(-c4cnc(OC)s4)c(-c4c(C)ccc5[nH]ncc45)n3C)C2)C1`, the IC50 was in the range of 1 to 10 µM.

The values are drawn from US20260060961A1, “SUBSTITUTED HETEROCYCLES AS RAS INHIBITORS” (Jazz Pharmaceuticals Ireland Limited, priority 2022, published 2026).
